Measurements as given in patent publication US7829568B2, “Substituted 5,6,7,8-tetrahydroimidazo[1,2-a]pyridin-2-ylamine compounds and their use for producing drugs” (Gruenenthal GmbH, priority 2005, dated 2010).

Chains of the proteins cited; added tags and fusions are not shown.
UniProt O35433, whole entry: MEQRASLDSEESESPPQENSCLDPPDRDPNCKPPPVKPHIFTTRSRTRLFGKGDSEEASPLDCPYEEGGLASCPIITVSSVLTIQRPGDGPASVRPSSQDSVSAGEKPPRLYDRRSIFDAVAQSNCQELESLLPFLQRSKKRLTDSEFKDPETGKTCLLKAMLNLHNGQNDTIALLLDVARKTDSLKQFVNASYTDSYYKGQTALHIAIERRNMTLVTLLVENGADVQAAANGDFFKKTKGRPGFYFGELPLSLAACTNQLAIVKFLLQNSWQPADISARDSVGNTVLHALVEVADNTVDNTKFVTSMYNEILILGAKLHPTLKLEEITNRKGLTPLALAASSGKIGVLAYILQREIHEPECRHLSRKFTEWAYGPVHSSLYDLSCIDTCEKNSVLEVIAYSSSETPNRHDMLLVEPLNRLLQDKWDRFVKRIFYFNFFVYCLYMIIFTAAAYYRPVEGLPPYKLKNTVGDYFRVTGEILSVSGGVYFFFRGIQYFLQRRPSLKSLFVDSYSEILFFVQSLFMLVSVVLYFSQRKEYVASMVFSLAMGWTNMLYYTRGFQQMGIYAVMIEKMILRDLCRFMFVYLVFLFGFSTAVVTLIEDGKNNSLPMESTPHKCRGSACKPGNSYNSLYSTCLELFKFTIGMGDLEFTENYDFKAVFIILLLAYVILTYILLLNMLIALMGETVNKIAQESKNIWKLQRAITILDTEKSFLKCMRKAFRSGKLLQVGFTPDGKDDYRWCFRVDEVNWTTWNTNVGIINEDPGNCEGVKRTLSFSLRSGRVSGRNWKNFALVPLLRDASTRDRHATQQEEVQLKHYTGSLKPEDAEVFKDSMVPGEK

Molecular target: vanilloid receptor 1 (VR1/TRPV1) of rats (Rattus norvegicus, UniProt O35433)
Assay: Functional analysis on the vanilloid receptor 1 (FLIPR Ca2+ influx assay in rat dorsal root ganglia cells)
Details: for inhibition at 10 µM: read-out: VR1 (rat) (% inhibition in comparison with 10 μM CP); for activation at 10 µM: read-out: VR1 (rat) (% stimulation in comparison with 10 μM CP); for VR1 (rat) (% inhibition in comparison with 10 μM CP) / VR1 (rat) (% stimulation in comparison with 10 μM CP): compound 10 μM, rat DRG cells; for VR1 (rat) (% inhibition in comparison with 10 μM CP): then 100 nM capsaicin after 5 min, relative to maximum inhibition with 10 μM capsaicin; for VR1 (rat) (% stimulation in comparison with 10 μM CP): Ca2+ signal relative to 10 μM capsaicin (CP)

Compound	inhibition at 10 µM [%]	activation at 10 µM [%]	VR1 (rat) (% inhibition in comparison with 10 μM CP) [%]	VR1 (rat) (% stimulation in comparison with 10 μM CP) [%]
CN(C(=O)c1cccc(Cl)c1)c1nc2n(c1C(=O)NC(C(=O)OC(C)(C)C)C(C)(C)C)CCCC2 (centres unmarked) [Example 104, 2-({2-[(3-chloro-benzoyl)-methyl-amino]-5,6,7,8-tetrahydro-imidazo[1,2-a]pyridine-3-carbonyl}-amino)-3,3-dimethyl-butyric acid tert-butyl ester]	45	–	–	–
CC(NC(=O)c1c(N(C)C(=O)c2cccc3ccccc23)nc2n1CCCC2)C1CCCCC1 (centres unmarked) [Example 105, 2-[methyl-(naphthalene-1-carbonyl)-amino]-5,6,7,8-tetrahydro-imidazo[1,2-a]pyridine-3-carboxylic acid (1-cyclohexyl-ethyl)-amide]	32	–	–	–
CCCCN(C(=O)c1cccc(Cl)c1)c1nc2n(c1C(=O)N1CCC(N3CCCCC3)CC1)CCCC2 [Example 109, N-[3-([1,4′]bipiperidinyl-1′-carbonyl)-5,6,7,8-tetrahydro-imidazo[1,2-a]pyridin-2-yl]-N-butyl-3-chloro-benzamide]	90	68	–	–
CCCCN(C(=O)c1cccc(Cl)c1)c1nc2n(c1C(=O)NCc1cccc(C)c1)CCCC2 [Example 113, 2-[butyl-(3-chloro-benzoyl)-amino]-5,6,7,8-tetrahydro-imidazo[1,2-a]pyridine-3-carboxylic acid 3-methyl-benzylamide]	89	39	–	–
CCCCN(C(=O)c1ccc(F)c(F)c1)c1nc2n(c1C(=O)NC(C)c1ccc(F)cc1)CCCC2 (centres unmarked) [Example 118, 2-[butyl-(3,4-difluoro-benzoyl)-amino]-5,6,7,8-tetrahydro-imidazo[1,2-a]pyridine-3-carboxylic acid [1-(4-fluoro-phenyl)-ethyl]-amide]	66	–	–	–
CCCCN(C(=O)c1cccc(Cl)c1)c1nc2n(c1C(=O)NC1CCCCC1)CCCC2 [Example 120, 2-[butyl-(3-chloro-benzoyl)-amino]-5,6,7,8-tetrahydro-imidazo[1,2-a]pyridine-3-carboxylic acid cyclohexylamide]	97	67	–	–
CCCCN(C(=O)c1ccc(F)c(F)c1)c1nc2n(c1C(=O)NCc1cccc(OC)c1)CCCC2 [Example 122, 2-[butyl-(3,4-difluoro-benzoyl)-amino]-5,6,7,8-tetrahydro-imidazo[1,2-a]pyridine-3-carboxylic acid 3-methoxy-benzylamide]	62	–	–	–
COC(=O)C(NC(=O)c1c(N(C)C(=O)c2cccc(Cl)c2)nc2n1CCCC2)C(C)OC(C)(C)C (centres unmarked) [Example 123, 3-tert-butoxy-2-({2-[(3-chloro-benzoyl)-methyl-amino]-5,6,7,8-tetrahydro-imidazo[1,2-a]pyridine-3-carbonyl}-amino)-methyl butyrate]	–	–	98	36
CCCCN(C(=O)c1cccc(Cl)c1)c1nc2n(c1C(=O)NC1CCCCC1OCc1ccccc1)CCCC2 (centres unmarked) [Example 124, 2-[butyl-(3-chloro-benzoyl)-amino]-5,6,7,8-tetrahydro-imidazo[1,2-a]pyridine-3-carboxylic acid (2-benzyloxy-cyclohexyl)-amide]	93	37	–	–
CN(C(=O)c1cccc(Cl)c1)c1nc2n(c1C(=O)NCCC(c1ccccc1)c1ccccc1)CCCC2 [Example 128, 2-[(3-chloro-benzoyl)-methyl-amino]-5,6,7,8-tetrahydro-imidazo[1,2-a]pyridine-3-carboxylic acid (3,3-diphenyl-propyl)-amide]	39	–	–	–
CCCCN(C(=O)c1cccc(Cl)c1)c1nc2n(c1C(=O)N[C@H](CC)c1ccccc1)CCCC2 [Example 132, 2-[butyl-(3-chloro-benzoyl)-amino]-5,6,7,8-tetrahydro-imidazo[1,2-a]pyridine-3-carboxylic acid (1-phenyl-propyl)-amide]	99	67	–	–
CCCCN(C(=O)c1cccc(Cl)c1)c1nc2n(c1C(=O)NCc1cccc(C)c1C)CCCC2 [Example 133, 2-[butyl-(3-chloro-benzoyl)-amino]-5,6,7,8-tetrahydro-imidazo[1,2-a]pyridine-3-carboxylic acid 2,3-dimethyl-benzylamide]	64	–	–	–
CN(C(=O)c1cccc2ccccc12)c1nc2n(c1C(=O)NC(c1ccccc1)c1ccc(Cl)cc1)CCCC2 (centres unmarked) [Example 139, 2-[methyl-(naphthalene-1-carbonyl)-amino]-5,6,7,8-tetrahydro-imidazo[1,2-a]pyridine-3-carboxylic acid [(4-chlor-phenyl)-phenyl-methyl]-amide]	–	–	43	–
CCCCN(C(=O)c1cccc(Cl)c1)c1nc2n(c1C(=O)NC(C)CCc1ccccc1)CCCC2 (centres unmarked) [Example 145, 2-[butyl-(3-chloro-benzoyl)-amino]-5,6,7,8-tetrahydro-imidazo[1,2-a]pyridine-3-carboxylic acid (1-methyl-3-phenyl-propyl)-amide]	82	30	–	–
CCCCN(C(=O)c1cccc(Cl)c1)c1nc2n(c1C(=O)NC(c1ccccc1)c1ccccc1)CCCC2 [Example 147, 2-[butyl-(3-chloro-benzoyl)-amino]-5,6,7,8-tetrahydro-imidazo[1,2-a]pyridine-3-carboxylic acid benzhydryl-amide]	53	–	–	–
CCCCN(C(=O)c1cccc(Cl)c1)c1nc2n(c1C(=O)NCc1cccs1)CCCC2 [Example 149, 2-[butyl-(3-chloro-benzoyl)-amino]-5,6,7,8-tetrahydro-imidazo[1,2-a]pyridine-3-carboxylic acid (thiophen-2-ylmethyl)-amide]	72	43	–	–
CN(C(=O)Cc1ccccc1)c1nc2n(c1C(=O)NCCc1cccc(C(F)(F)F)c1)CCCC2 [Example 156, 2-(methyl-phenylacetyl-amino)-5,6,7,8-tetrahydro-imidazo[1,2-a]pyridine-3-carboxylic acid [2-(3-trifluoromethyl-phenyl)-ethyl]-amide]	34	–	–	–
CCCCN(C(=O)c1cccc(Cl)c1)c1nc2n(c1C(=O)NCc1cccc(F)c1)CCCC2 [Example 158, 2-[butyl-(3-chloro-benzoyl)-amino]-5,6,7,8-tetrahydro-imidazo[1,2-a]pyridine-3-carboxylic acid 3-fluoro-benzylamide]	53	33	–	–
CCCCN(C(=O)c1ccc(F)c(F)c1)c1nc2n(c1C(=O)NC1CCCCC1OCc1ccccc1)CCCC2 (centres unmarked) [Example 161, 2-[butyl-(3,4-difluoro-benzoyl)-amino]-5,6,7,8-tetrahydro-imidazo[1,2-a]pyridine-3-carboxylic acid (2-benzyloxy-cyclohexyl)-amide]	91	32	–	–
CC(CNC(=O)c1c(N(C)C(=O)c2cccc3ccccc23)nc2n1CCCC2)c1ccc(Cl)cc1 (centres unmarked) [Example 163, 2-[methyl-(naphthalene-1-carbonyl)-amino]-5,6,7,8-tetrahydro-imidazo[1,2-a]pyridine-3-carboxylic acid [2-(4-chlor-phenyl)-propyl]-amide]	–	–	53	83
CC(NC(=O)c1c(N(C)C(=O)c2cccc(Cl)c2)nc2n1CCCC2)C12CC3CC(CC(C3)C1)C2 (centres unmarked) [Example 165, 2-[(3-chloro-benzoyl)-methyl-amino]-5,6,7,8-tetrahydro-imidazo[1,2-a]pyridine-3-carboxylic acid (1-adamantan-1-yl-ethyl)-amide]	47	–	–	–
